Test system: CD4^− iNKT cells
Assay: Expansion of iNKT cells from PBMC cultured with alpha-GalCer and a cytokine (IL-15 or IL-2)
Format: cell-based, human
Protocol: The method according to the present invention is characterized by the fact that the expansion factor of iNKT cells is equal to or higher than 10, preferably 100, more preferably 500. The expansion factor of iNKT cells is more preferably comprised between 100 and 10 000. The “expansion factor” corresponds to the number of iNKT cells obtained at day 14 of expansion divided by the number of iNKT cells put in culture at day 0. The number of cells is determined by routinely used techniques by the skilled person (cell couting and flow cytometry staining to determine the percentage of iNKT cells among total PBMCs).
PBMC obtained by centrifugation of fresh whole blood on density gradient were culture at the concentration of 5.10^5 cells/mL in RPMI 1640 advanced medium (ref: 11530446, Gibco®), with 5% SVF v/v, 4 mM glutamine, 100 ng/mL alpha-galactoside-ceramide (KRN-7000, Funakoshi). Cultures were performed in a cell culture bag in a normoxia incubator at 37° C. and 5% CO2.
On day 1 of culture, 10 ng/mL of IL-15 were added.
On day 7 of culture, 50% of the medium was changed and 10 ng/mL of IL-15 were introduced.
On day 10 of the culture, 50% of the medium was changed and 10 ng/mL of IL-15 were introduced. […]

## IL-2: interleukin 2, comparator cytokine of the classical expansion protocol
D14 of culture, n=14
  mean % CD4^− iNKT cells±SEM: 47.7±7.35%
Cytokine present during expansion phase, n=17, cells at day 14 / cells at day 0
  mean expansion factor of CD4^− iNKT cells±SEM: 158±38
